Laboratory results from ChEMBL document CHEMBL6074676, “Optimization and Biological Evaluation of Novel 1H-Pyrrolo[2,3-c]pyridin Derivatives as Potent and Reversible Lysine Specific Demethylase 1 Inhibitors for the Treatment of Acute Myelogenous Leukemia” (J Med Chem, 2024).

Target: Lysine-specific histone demethylase 2 (Homo sapiens, UniProt Q8NB78)
Test: Inhibition of N-terminal GST-tagged recombinant full length human LSD2 expressed in Baculovirus using Bio- H3K4me2 (1 to 24 residues) as substrate incubated for 1 hr by TR-FRET assay

- IC50: > 20 µM
Structure (SMILES): COc1ccc(-c2c(-c3ccc(C#N)c(F)c3)nc(N3CCC(N)CC3)n(C)c2=O)cc1F [PULRODEMSTAT]
